In US6100236A, “Method and composition for treating thrombosis” (La Jolla Cancer Research Foundation, priority 1995, dated 2000):

Assay: Template bleeding, clotting times and hematology in baboons
Format: in vivo, baboon
Settings: animal 1; blood taken immediately after completion of second shunt
Protocol: Twenty-four hours before the ex vivo shunt was established, platelets were isolated from 500 ml of blood from the test animal and labelled with ca. 500 microcuries of indium-111 oxine (Medi+Physics, Emeryville, Calif.), which irreversibly and specifically binds to platelets with an efficiency of 50%. Immediately after labelling, these platelets were then injected back into the animal and allowed to circulate for 24 hours. Immediately before the start of the study, fibrinogen that had been isolated from the animal and labelled with iodine-131 (DuPont Nuclear, Boston, Mass.) was also injected back into the animal. Also at this time, baseline determinations of the clotting and template bleeding times were made, and blood samples were drawn for hematology studies.
At one- and two-hour time points, template bleeding times were measured, and blood samples were drawn to assess the hematology aggregation studies. Platelet aggregation studies were performed as described in Example V using ADP as the stimulus.
After a second, identical shunt was attached to the animal, the anti-platelet peptide GPen[…] was administered as an intravenous (IV) injection. A second series of scans was then obtained to ascertain the effect of the peptide on the platelet uptake pattern of the graft. […]

GPenGHRGDLRCA
Reduction of platelet count: 14%
Reduction of white blood cell count: 37%
